Measured values reported in PubChem BioAssay (NCI).
Only a part is listed here, and it is no random draw.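 96-well plates, one dose, 48 hours. Percent growth reported; active if below 10.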 Activity calls are given as the source filed them.

Experiments:
Experiment in all cases: NCI-60 one-dose screen, 48 h (100 = growth as untreated, 0 = no growth, -100 = all killed)
Conditions in all cases: 10 µM
HCT-15 colon = tested on: HCT-15 colon
HT29 colon = tested on: HT29 colon
SNB-75 CNS = tested on: SNB-75 CNS
SNB-19 CNS = tested on: SNB-19 CNS
U251 CNS = tested on: U251 CNS
PC-3 prostate = tested on: PC-3 prostate
SK-MEL-5 melanoma = tested on: SK-MEL-5 melanoma
UACC-62 melanoma = tested on: UACC-62 melanoma
LOX IMVI melanoma = tested on: LOX IMVI melanoma
SK-MEL-28 melanoma = tested on: SK-MEL-28 melanoma

Measured: growth

Cc1ccc(CN(CCCl)CCCl)cc1C
inactive: HCT-15 colon 98.1% | HT29 colon 92.6% | SNB-75 CNS 72% | SNB-19 CNS 105% | U251 CNS 94.7% | PC-3 prostate 93.1% | SK-MEL-5 melanoma 98.1% | UACC-62 melanoma 98% | LOX IMVI melanoma 93.7% | SK-MEL-28 melanoma 101%

OCC#CCN(CCCl)CCCl
inactive: HCT-15 colon 108% | HT29 colon 105% | SNB-75 CNS 92.4% | SNB-19 CNS 109% | PC-3 prostate 88.5% | SK-MEL-5 melanoma 97.1% | UACC-62 melanoma 87.1% | LOX IMVI melanoma 73.5% | SK-MEL-28 melanoma 111%

O/N=C/c1ccc(N(CCCl)CCCl)cc1
inactive: HCT-15 colon 92.7% | HT29 colon 87.2% | SNB-75 CNS 70.4% | SNB-19 CNS 104% | PC-3 prostate 93% | SK-MEL-5 melanoma 102% | UACC-62 melanoma 83.6% | LOX IMVI melanoma 87.8% | SK-MEL-28 melanoma 105%

ClCCN(CCCl)Cc1nc2cc(Cl)c(Cl)cc2[nH]1
inactive: HCT-15 colon 74.5% | HT29 colon 64.8% | SNB-75 CNS 78.6% | SNB-19 CNS 71.1% | U251 CNS 61.7% | PC-3 prostate 84.9% | SK-MEL-5 melanoma 89.9% | UACC-62 melanoma 63.3% | SK-MEL-28 melanoma 103%

CCOc1ccc(N(CCCl)CCCl)cc1
inactive: HCT-15 colon 72% | HT29 colon 73.3% | SNB-75 CNS 61.5% | SNB-19 CNS 82.9% | U251 CNS 52.1% | PC-3 prostate 70.4% | SK-MEL-5 melanoma 77.9% | UACC-62 melanoma 60.9% | LOX IMVI melanoma 49.8% | SK-MEL-28 melanoma 89.5%

O=CC(O)C(O)C(O)C(O)CN(CCCl)CCCl (stereo not given)
inactive: HCT-15 colon 99.8% | HT29 colon 113% | SNB-75 CNS 94.4% | SNB-19 CNS 100% | U251 CNS 95.5% | PC-3 prostate 89.5% | SK-MEL-5 melanoma 98.1% | UACC-62 melanoma 96% | LOX IMVI melanoma 93.4% | SK-MEL-28 melanoma 106%

Cc1ccc(NC2(C(N)=O)CCN(Cc3ccccc3)CC2)cc1
inactive: HCT-15 colon 111% | HT29 colon 100% | SNB-75 CNS 87% | SNB-19 CNS 103% | U251 CNS 99.4% | PC-3 prostate 90.8% | SK-MEL-5 melanoma 99.5% | UACC-62 melanoma 97.2% | LOX IMVI melanoma 98.7% | SK-MEL-28 melanoma 109%

O=P1(N(CCCl)CCCl)SCCCS1
inactive: HCT-15 colon 108% | HT29 colon 116% | SNB-75 CNS 91.9% | SNB-19 CNS 113% | U251 CNS 99.9% | PC-3 prostate 113% | SK-MEL-5 melanoma 107% | UACC-62 melanoma 109% | LOX IMVI melanoma 97.8% | SK-MEL-28 melanoma 110%

BrCCN(CCBr)CCCN(CCBr)CCBr
inactive: HCT-15 colon 97.4% | HT29 colon 105% | SNB-75 CNS 88.4% | SNB-19 CNS 118% | PC-3 prostate 98.3% | SK-MEL-5 melanoma 100% | UACC-62 melanoma 105% | LOX IMVI melanoma 91.1% | SK-MEL-28 melanoma 112%

C[N+](C)(CCCl)CCCl
inactive: HCT-15 colon 106% | HT29 colon 103% | SNB-75 CNS 76.7% | SNB-19 CNS 104% | U251 CNS 98.8% | PC-3 prostate 93% | SK-MEL-5 melanoma 106% | UACC-62 melanoma 104% | LOX IMVI melanoma 72.1% | SK-MEL-28 melanoma 106%

O=C(O)CCCCc1ccc(N(CCCl)CCCl)cc1
inactive: HCT-15 colon 88.3% | HT29 colon 90.3% | SNB-75 CNS 84.2% | SNB-19 CNS 93.9% | U251 CNS 72.7% | PC-3 prostate 75.3% | SK-MEL-5 melanoma 94% | UACC-62 melanoma 82.6% | LOX IMVI melanoma 75.7% | SK-MEL-28 melanoma 107%

CCCCOc1ccc(N(CCCl)CCCl)cc1
inactive: HCT-15 colon 108% | HT29 colon 95.4% | SNB-75 CNS 83.7% | SNB-19 CNS 104% | U251 CNS 98.2% | PC-3 prostate 99.5% | SK-MEL-5 melanoma 108% | UACC-62 melanoma 103% | LOX IMVI melanoma 95.5% | SK-MEL-28 melanoma 107%

Cc1ccc(CN(CCCl)CCCl)cc1
inactive: HCT-15 colon 100% | HT29 colon 92.6% | SNB-75 CNS 83.2% | SNB-19 CNS 100% | U251 CNS 82.6% | PC-3 prostate 89% | SK-MEL-5 melanoma 80.7% | UACC-62 melanoma 89.7% | LOX IMVI melanoma 75.6% | SK-MEL-28 melanoma 110%

NC(Cc1ccccc1N(CCCl)CCCl)C(=O)O (stereo not given)
inactive: HCT-15 colon 83% | HT29 colon 90% | SNB-75 CNS 53.2% | SNB-19 CNS 81.8% | U251 CNS 65.4% | PC-3 prostate 96.9% | SK-MEL-5 melanoma 94.5% | UACC-62 melanoma 64.2% | LOX IMVI melanoma 55.9% | SK-MEL-28 melanoma 92.4%

CCOC(=O)c1ccc(N(CCCl)CCCl)cc1
inactive: HCT-15 colon 94.4% | HT29 colon 104% | SNB-75 CNS 99.6% | SNB-19 CNS 103% | PC-3 prostate 85.3% | SK-MEL-5 melanoma 100% | UACC-62 melanoma 95.8% | LOX IMVI melanoma 101% | SK-MEL-28 melanoma 99.3%
